IC50 data for one compound are collected here from ChEMBL document CHEMBL1131467, “Identification and initial structure-activity relationships of a novel class of nonpeptide inhibitors of blood coagulation factor Xa” (J Med Chem, 1998).

Sequences of proteins named here, by UniProt entry; tags and fusion partners are left off. Residues count along the entry.
UniProt P00742, 41-179 limits assumed: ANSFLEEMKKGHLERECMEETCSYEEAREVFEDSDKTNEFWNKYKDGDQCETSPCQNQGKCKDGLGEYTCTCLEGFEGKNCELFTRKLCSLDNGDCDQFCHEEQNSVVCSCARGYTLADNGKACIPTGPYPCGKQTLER
UniProt P00742, 235-488 limits assumed: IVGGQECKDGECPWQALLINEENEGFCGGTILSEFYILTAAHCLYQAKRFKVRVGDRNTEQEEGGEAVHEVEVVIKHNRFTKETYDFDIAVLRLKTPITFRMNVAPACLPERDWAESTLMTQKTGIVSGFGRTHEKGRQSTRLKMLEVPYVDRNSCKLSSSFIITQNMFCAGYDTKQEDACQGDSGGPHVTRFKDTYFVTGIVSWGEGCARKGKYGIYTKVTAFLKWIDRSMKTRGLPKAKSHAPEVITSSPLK

For the test, the target named is Coagulation factor X (Homo sapiens, UniProt P00742). The test is described as follows: Inhibitory activity against human Coagulation factor X. In short, it runs like this:
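Human factor Xa at 1 nM final, in 0.05 M Tris, 0.15 M NaCl, 0.1% PEG-8000, pH 7.5, room temperature. Compound preincubated with enzyme 30 min, then Spectrozyme FXa added (200 μM final). Read continuously at 405 nm for 5 min; under 10% of substrate consumed. Run in triplicate. IC50 taken from initial velocities; Ki by Cheng-Prusoff, assuming competitive inhibition.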

One may read the IC50 as the concentration needed to halve the response being measured. Compound `COC(=O)C(Cc1cccc(C(=N)N)c1)C(/C=C/c1ccccc1)NC(=O)Cc1ccc(-c2ccccc2)cc1` (stereo unspecified) registered an IC50 of 1130 nM.
